Data set [1] deals with Serine/threonine-protein kinase pim-1 (Homo sapiens, UniProt P11309). As to the kind of experiment: Inhibition of recombinant Pim1 (unknown origin) by electrochemiluminescence assay.
Data set [2] deals with Serine/threonine-protein kinase PIM (Homo sapiens, UniProt P11309+Q9P1W9+Q86V86). The experiment in a line: Inhibition of Pim1/2 in human KMS-12 cells assessed as decrease in BAD phosphorylation at Ser112 by Western blot method. The data set is classed as cell-based.
The target in data set [3] is Serine/threonine-protein kinase pim-2 (Homo sapiens, UniProt Q9P1W9). The experiment in a line: Inhibition of recombinant Pim2 (unknown origin) by electrochemiluminescence assay.
Data set [4] can be described thus: Intrinsic clearance in human liver microsomes at 1 uM after 30 mins by LC-MS HRMS analysis. The data set is classed as ADME. The settings on record: read-out: CLH. (In general: Liver microsomes are vesicles of endoplasmic reticulum, rich in cytochrome P450 enzymes.)
Data set [5] concerns the target Serine/threonine-protein kinase pim-3 (Homo sapiens, UniProt Q86V86). The experiment in a line: Inhibition of Pim3 (unknown origin).

Amino acid sequences for entries named in this document (tags omitted). A change or cut given only in a name is not applied to a line headed by its entry.
UniProt P11309, whole entry: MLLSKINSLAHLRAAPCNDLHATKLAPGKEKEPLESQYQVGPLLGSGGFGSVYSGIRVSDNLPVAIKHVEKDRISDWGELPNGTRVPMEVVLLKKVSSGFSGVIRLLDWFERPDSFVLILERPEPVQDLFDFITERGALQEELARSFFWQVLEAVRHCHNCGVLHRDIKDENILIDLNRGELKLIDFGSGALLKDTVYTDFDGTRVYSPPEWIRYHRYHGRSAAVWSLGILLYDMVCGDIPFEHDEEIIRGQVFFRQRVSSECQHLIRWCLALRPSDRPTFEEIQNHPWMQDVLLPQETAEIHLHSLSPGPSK
UniProt Q9P1W9: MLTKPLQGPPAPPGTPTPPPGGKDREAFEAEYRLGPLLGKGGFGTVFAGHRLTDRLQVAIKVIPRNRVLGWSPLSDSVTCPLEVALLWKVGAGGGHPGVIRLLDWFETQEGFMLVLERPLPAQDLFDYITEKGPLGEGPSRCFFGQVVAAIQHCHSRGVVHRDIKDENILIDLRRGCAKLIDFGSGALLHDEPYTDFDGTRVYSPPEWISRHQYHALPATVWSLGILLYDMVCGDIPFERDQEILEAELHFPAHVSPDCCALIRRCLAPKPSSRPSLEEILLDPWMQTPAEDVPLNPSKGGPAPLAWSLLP

For the compound `C[C@@H]1CC[C@H](N)CN1c1ccncc1Nc1ncc2ccc(-c3c(F)cccc3F)nn12`, the IC50 in data set [1] was 0.021 nM; in data set [2], 49 nM; in data set [3], 0.31 nM.
Regarding `C[C@H]1[C@@H](N)CCCN1c1ccncc1Nc1ncc2ccc(-c3c(F)cccc3F)nn12`, the microsomal CLint at 1 µM in data set [4] is 102 µL/min/mg. The concentration for half-maximal inhibition (IC50) in data set [3] is 5.4 nM.
Regarding `C[C@H]1C[C@H](N)CN(c2ccncc2Nc2ncc3ccc(-c4c(F)cccc4F)nn23)C1`, in data set [3], the half-inhibitory concentration (IC50) was 0.79 nM.
Turning to `C[C@@H]1C[C@H](N)CN(c2ccncc2Nc2ncc3ccc(-c4c(F)cccc4F)nn23)C1`, the IC50 was 0.024 nM in data set [1], 0.027 nM in data set [5], 28 nM in data set [2] and 0.094 nM in data set [3].
As to `C[C@@H]1[C@@H](N)CCCN1c1ccncc1Nc1ncc2ccc(-c3c(F)cccc3F)nn12`, the 50% inhibitory concentration (IC50) in data set [3] came out at 0.29 nM.

In general, IC50 refers to the midpoint of a concentration-inhibition curve.

The values are drawn from ChEMBL document CHEMBL3864151, “Discovery of imidazopyridazines as potent Pim-1/2 kinase inhibitors” (Bioorg Med Chem Lett, 2016).
